Measurements as given in publication PMC4893804 (Journal of medicinal chemistry, 2015).

Chains of the proteins cited; added tags and fusions are not shown. Lines headed by an entry give the natural chain unless they say otherwise; changes in a name come on top.
UniProt P09252: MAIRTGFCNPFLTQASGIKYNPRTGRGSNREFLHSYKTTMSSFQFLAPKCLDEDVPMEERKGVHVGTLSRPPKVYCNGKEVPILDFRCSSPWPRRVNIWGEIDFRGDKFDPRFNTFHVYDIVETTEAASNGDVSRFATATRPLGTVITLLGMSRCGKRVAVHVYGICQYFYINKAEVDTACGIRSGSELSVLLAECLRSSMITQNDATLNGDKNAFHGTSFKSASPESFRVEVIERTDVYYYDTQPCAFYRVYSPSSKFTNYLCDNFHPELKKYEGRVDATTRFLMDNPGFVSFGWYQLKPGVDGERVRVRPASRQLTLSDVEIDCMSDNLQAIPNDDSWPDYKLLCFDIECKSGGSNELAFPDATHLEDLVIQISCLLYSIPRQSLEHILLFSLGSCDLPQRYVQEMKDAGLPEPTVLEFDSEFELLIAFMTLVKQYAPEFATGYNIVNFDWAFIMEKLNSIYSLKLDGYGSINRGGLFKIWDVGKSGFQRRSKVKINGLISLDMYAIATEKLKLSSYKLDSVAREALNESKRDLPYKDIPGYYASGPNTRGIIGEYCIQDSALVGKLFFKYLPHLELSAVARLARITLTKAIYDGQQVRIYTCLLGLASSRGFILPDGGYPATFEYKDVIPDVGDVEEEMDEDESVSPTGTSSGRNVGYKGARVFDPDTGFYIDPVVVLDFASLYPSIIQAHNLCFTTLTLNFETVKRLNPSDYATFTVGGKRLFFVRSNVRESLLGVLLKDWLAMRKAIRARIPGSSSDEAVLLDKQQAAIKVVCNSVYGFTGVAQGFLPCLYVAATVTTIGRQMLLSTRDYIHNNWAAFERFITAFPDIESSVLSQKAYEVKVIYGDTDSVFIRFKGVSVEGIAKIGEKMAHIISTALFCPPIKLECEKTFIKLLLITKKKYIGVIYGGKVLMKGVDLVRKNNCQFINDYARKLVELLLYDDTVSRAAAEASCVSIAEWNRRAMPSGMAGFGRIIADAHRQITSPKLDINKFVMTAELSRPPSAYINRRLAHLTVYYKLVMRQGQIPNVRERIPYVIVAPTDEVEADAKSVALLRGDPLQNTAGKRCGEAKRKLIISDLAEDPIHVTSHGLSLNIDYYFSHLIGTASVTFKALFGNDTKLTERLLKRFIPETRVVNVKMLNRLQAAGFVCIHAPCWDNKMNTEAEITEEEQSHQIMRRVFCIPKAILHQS

Molecular target: VZV DNA polymerase (Varicella-zoster virus, UniProt P09252)
Assay: Enzyme assay with VZV DNA polymerase
Type: biochemical

O=C(O)P(=O)(O)O [PFA, phosphonoformic acid, reference compound]
IC50: 180 ± 10 nM
